Values quoted from earlier work, collected in paper PMC11881554, “Restoring cefepime activity against multidrug-resistant KPC-producing Klebsiella pneumoniae by combination with boronic acid inhibitors, MB076 and S02030” (Antimicrobial Agents and Chemotherapy, 2025).
Read-outs that look alike come from different tables or passages of the source.

Columns and labels:
[1] = parameters: method as in PMID 32253209; settings: neutropenic animals; cited from earlier work
[2] = healthy adults, cited from earlier work

CO/N=C(\C(=O)N[C@@H]1C(=O)N2C(C(=O)[O-])=C(C[N+]3(C)CCCC3)CS[C@H]12)c1csc(N)n1 [FEP, cefepime]
AUCELF:AUCplasma ratio [1]: 73.4%
ratio of ELF to total plasma concentration ([2]; at 0.5 h): 0.31 ± 0.07
ratio of ELF to total plasma concentration ([2]; at 10 h): 0.74 ± 0.42
